According to patent US11021711B2, “Genetic variations associated with drug resistance” (GENENTECH, Inc., priority 2008, dated 2021):

System: EFM-192A cells
Experiment: Mitotic index (phospho histone H3) after ABCC3 or control siRNA, EFM-192A
Format: cell-based, human
Description: High content screening assays were carried out on an Arrayscan VTI (Cellomics Inc, Pittsburgh, Pa.). Cells were transfected in 96 well format using siRNA “Smartpool” oligonucleotides purchased from Dharmacon Inc and Oligofectamine transfection reagents. To prioritize genes for functional studies, 2-sided Wilcoxon rank sum tests using the R programming language (http://www.r-project.org) were done to identify genes with a significant difference in gene expression in cell lines with more than 4 copies compared to those with less than 4 copies of the 17q21.3 amplicon. […] Cells were counterstained with Hoechst-33258 to allow identification of nuclei and the percentage of cells positive for nuclear pH3 immunofluorescence, also known as the Mitotic Index (30), was then quantitated for at least 1000 cells per well using Cellomics Target Activation software.
Phosphorylation at Ser10 of histone H3 is tightly correlated with chromosome condensation during M phase, and the percentage of cells that are positive for pH3 staining, or mitotic index, can be determined through an immunofluorescence assay.

trastuzamab-mc-vc-PAB-MMAF: trastuzamab (Herceptin) conjugated via maleimidocaproyl-valine-citrulline-PAB to MMAF
sensitivity (mitotic response) of ABCC3 siRNA transfected cells vs control siRNA (NTC) transfected cells: more sensitive
